# Test results: PubChem BioAssay AID2540 (Sanford-Burnham Center for Chemical Genomics, 2010)
# Protein sequences, listed by entry. Tags and fused reporters are not part of them. Lines headed by an entry give the natural chain unless they say otherwise; changes in a name come on top.
# UniProt Q96LD8: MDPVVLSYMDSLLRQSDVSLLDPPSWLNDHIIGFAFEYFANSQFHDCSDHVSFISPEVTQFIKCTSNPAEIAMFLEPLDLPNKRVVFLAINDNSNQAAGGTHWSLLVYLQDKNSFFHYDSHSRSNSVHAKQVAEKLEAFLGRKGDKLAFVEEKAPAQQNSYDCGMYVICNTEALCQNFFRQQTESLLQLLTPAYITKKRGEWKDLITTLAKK
# This is a selection; strong and weak results do not stand in their true shares. Activity calls are given as the source filed them. No stated cut-off is given here; in the data, active means inhibition above about 50%; inactive means the rest.
# Target: Sentrin-specific protease 8 (Homo sapiens) (UniProt Q96LD8)
# Assay: SENP8 protease inhibitors, primary screen, biochemical, luminescence (AID 2540)
# Details: purified SENP8, Z-RLRGG-aminoluciferin cleavage, at 10 µM, active compounds read high
row,SMILES,inhibition
1,Clc1n[nH]nc1-c1nn[nH][15n]1,inactive: -7.56%
2,CC(C)(C)C(=O)NC(Sc1ncccn1)C(Cl)(Cl)Cl (configuration not stated),inactive: 2.93%
3,CCOP(=O)(Nc1ccc(C)cn1)OCC,inactive: 0.527%
4,CN(CCCl)Cc1cc(Cl)c(NC2=NCCN2)c(Cl)c1,inactive: 3.61%
5,O=P1(Nc2ccccn2)COc2ccccc2OC1,inactive: -6.87%
6,CCC1=CC2Cc3nc4ccc(Cl)cc4c(N)c3C(C1)C2 (configuration not stated),inactive: -0.408%
7,CCOP(=O)(NC(=NC(C)c1ccccc1)NC(C)c1ccccc1)OCC (configuration not stated),inactive: 4.55%
8,Cc1ccc(OCC(=O)OC2CN3CCC2CC3)cc1 (configuration not stated),inactive: 0.969%
9,O=[As](O)(c1cccs1)c1cccs1,inactive: -9.16%
10,O=P1(Nc2ccc(Br)cn2)COc2ccccc2OC1,inactive: 9.36%
11,NS(=O)(=O)c1cccc(NC(=O)COC(=O)C(O)(c2ccccc2)c2ccccc2)c1,inactive: -0.473%
12,Nc1cccc([As](=O)(O)c2ccccc2)c1,inactive: -0.81%
13,O=P1(Nc2ncccn2)COc2ccccc2OC1,inactive: -10.5%
14,O=C(/C=C/c1ccccc1)OC1CN2CCC1CC2 (configuration not stated),inactive: -5.99%
15,CN(C)C1(CNC(=O)c2ccc(S(C)(=O)=O)cc2)CCCCC1,inactive: -7.67%
16,Cc1nn(-c2ccccc2)c2c1P(=O)(N1CCOCC1)N(C)C(c1ccccc1)=N2 (configuration not stated),inactive: -3.32%
17,CC1CCC(C(C)C)C(OP(=O)(Nc2ccccn2)c2ccccc2)C1 (configuration not stated),inactive: -0.392%
18,Cc1ccc(C(=O)OC2CN3CCC2CC3)cc1 (configuration not stated),inactive: -1.76%
19,O=P(Nc1ccccn1)(c1cccc2ccccc12)c1cccc2ccccc12,inactive: 3.64%
20,Cc1cc(SC(NC=O)C(Cl)(Cl)Cl)ncn1 (configuration not stated),inactive: -10.3%
21,CCOC(=O)Nc1cccc([As](=O)(O)O)c1,inactive: -3.96%
22,CCCCOc1ccc(C(=O)NCC2(N3CCCCC3)CCCCC2)cc1OC,inactive: -3.02%
23,Cc1cc(SC(NC(=O)c2ccccc2)C(Cl)(Cl)Cl)nc(C(C)C)n1 (configuration not stated),inactive: 4.31%
24,CCOC(=O)Nc1ccc([As](=O)(O)O)c(O)c1,inactive: -0.311%

row,SMILES,inhibition
1,CCC(C)N(CC(C)C)C(=S)SC(NC(C)=O)C(Cl)(Cl)Cl (configuration not stated),inactive: 3.43%
2,CCOC(=O)c1ccc(NC(=O)C(C)(CCl)SC)cc1 (configuration not stated),inactive: -5.99%
3,O=C(OC1CN2CCC1CC2)c1cccc([N+](=O)[O-])c1 (configuration not stated),inactive: 0.19%
4,O=C(COc1ccccc1)OC1CN2CCC1CC2 (configuration not stated),inactive: 0.323%
5,O=C(Nc1ccncc1[N+](=O)[O-])c1ccc([N+](=O)[O-])cc1[N+](=O)[O-],inactive: 2.87%
6,COP1(=S)c2c(C)nn(CCC#N)c2N=C(c2ccc(F)cc2)N1C (configuration not stated),inactive: 0.921%
7,COc1ccc(N/C(=N/P(=O)(N2CCOCC2)N2CCOCC2)N2CCOCC2)cc1,inactive: 2.5%
8,COc1ccc2nc(NP(=O)(c3ccccc3)c3ccccc3)sc2c1,inactive: 8.74%
9,COc1cc(I)ccc1[As](=O)(O)O,inactive: 0.792%
10,O=C(OC1CN2CCC1CC2)C12CC3CC(CC(C3)C1)C2 (configuration not stated),inactive: -5.74%
11,Cc1cc(=O)[nH]c(N[N+](=O)[O-])n1,inactive: -6.95%
12,Cc1c2c(nc3ccccc13)SC(C(Cl)Cl)C2 (configuration not stated),inactive: -15.5%
13,CC(C)NC(=O)NP(=O)(Oc1ccccc1)Oc1ccccc1,inactive: -0.793%
14,CCN(CC)C(=S)SC(NC=O)C(Cl)(Cl)Cl (configuration not stated),inactive: -7.82%
15,O=C(OC1CN2CCC1CC2)c1cccc2[nH]cnc12 (configuration not stated),inactive: -0.408%
16,O=[N+]([O-])c1cc([N+](=O)[O-])c(-c2ccn[nH]2)s1,inactive: 8.15%
17,CC(C)c1ccc(OP(=O)(Nc2ccccn2)Oc2ccccc2F)cc1 (configuration not stated),inactive: 2.6%
18,ClCCSc1nnc(-c2cccnc2)o1,inactive: 6.76%
19,Cc1ccc2nc3c(c(C)c2c1)CC(C(Cl)Cl)S3 (configuration not stated),inactive: -13.7%
20,Cc1ccc(OP(=O)(Nc2ccc([N+](=O)[O-])cn2)Oc2ccc(C)cc2)cc1,inactive: 1.88%
21,O=[As](O)(c1ccc(O)cc1)c1ccccc1O,inactive: -3.05%
22,C[As](=O)(O)c1cccc(C(=O)O)c1,inactive: -5.05%
23,COc1cc(C(=O)NCC2(N3CCOCC3)CCCCC2)ccc1OCC(C)C,inactive: -0.205%
